{"source": "paper PMC10967909", "about": "“Targeted Delivery of Abaloparatide to Spinal Fusion Site Accelerates Fusion Process in Rats” (Biomedicines, 2024)", "key": {"[1]": {"test_system": "L4–L5 bilateral posterolateral lumbar spinal fusion in Sprague Dawley rats", "assay": "Efficacy study: fusion by manual palpation of excised lumbars", "format": "in vivo", "conditions": "after 8 weeks, male rats, n = 10, blinded, saline 29%", "experimental": "(§1) Once acidic oligopeptides spinal fusion-targeting was established, an efficacy study in both male and female skeletally-mature Sprague Dawley rats (n = 10/sex) (Envigo, Indianapolis, IN, USA) was performed using the same surgical procedure as before with a 5 × 7.5 mm RCM6 collagen sponge (Ace Surgical supplies, Brockton, MA, USA). A total of 60 rats were randomly assigned to one of three treatments: phosphate-buffered saline vehicle control, 10 μg BMP2 (BioVision, Milpitas, CA, USA), or 38 nmol/kg twice a week of acidic oligopeptide-targeted abaloparatide (Abalo46-D-Glu20). The initial dose of all drugs was administered on the sponge and then vehicle control and Abalo46-D-Glu20 were administered subcutaneously twice a week for 8 weeks. The spinal fusion mineralization was assessed using a Quantum GX μCT (Perkin Elmer, Waltham, MA, USA). Each rat was scanned weekly during weeks 3–8. The scans were blindly scored by two separate individuals. The density and total volume of the fusions was calculated from the μCT scans. At the end, the lumbars were removed and blindly manually palpated, as has been previously described. Data were analyzed in GraphPad Prism version 9, and significance was established by ANOVA. All animal experiments were performed in accordance with protocols approved by Purdue University’s Institutional Animal Care and Use Committee (IACUC)."}, "[2]": {"test_system": "L4–L5 bilateral posterolateral lumbar spinal fusion in Sprague Dawley rats", "assay": "Efficacy study: spinal fusion mineralization and fusion by μCT", "format": "in vivo", "experimental": "as §1"}, "[3]": {"conditions": "discussion; ref not given; cited from earlier work", "experimental": "Over 500,000 spinal fusions are performed annually in the United States at an average cost of ~USD 120,000/per procedure. With recovery times for full activity ranging from 3 to 12 months and failure rates varying from 10 to 36% [3, 4], there is clearly a need to explore alternative strategies for improving the procedure. Thus, prolonged postoperative immobilization increases the risk for comorbidities and reduces quality of life, while fusion failure imposes a need for additional surgical interventions and/or prolonged restriction of mobility. Moreover, current ther ... || A second question that logically arose is whether abaloparatide constituted the ideal payload for accelerating the fusion process. Although the PTH1R agonist, abaloparatide, has been well established as a bone anabolic agent, it is only clinically approved for treating osteoporosis. Most of abaloparatide’s applications have been limited to promoting systemic changes throughout the skeleton to reduce fracture risk."}}, "data": [{"substance": "BMP2: bone morphogenetic protein 2 (BioVision), 10 μg, topically applied standard of care", "values": [{"measurement": "joints fused by manual palpation", "setting": "[1]", "result": 66, "unit": "%"}, {"measurement": "average fusion score (out of 16)", "setting": "[2]; 8 weeks, male rats, mean of n = 10, two blinded reviewers, sum of four 0–4 scores, saline 6.2", "result": 9.2}, {"measurement": "fusion rate (completed osteointegration by micro CT)", "setting": "[2]; 8 weeks, male rats, n = 10, blinded, Ab46-D-Glu20 38 nmol/kg b.i.w. s.c., BMP2 10 μg on sponge, saline group 38%", "result": 63, "unit": "%"}, {"measurement": "rate of mineralization / fusion process (μCT over time)", "setting": "[2]; 8 weeks, 38 nmol/kg b.i.w. s.c. vs BMP2 (10 μg on sponge) and saline", "result": "proceed slower than with Ab46-D-Glu20"}, {"measurement": "response of female rats", "setting": "[2]; female rats, collagen sponge, BMP2 10 μg vs Ab46-D-Glu20 38 nmol/kg b.i.w.", "result": "female rats responded more poorly to BMP2 than they did to Ab46-D-Glu20"}, {"measurement": "adverse effects of leakage into surrounding tissue", "setting": "[3]", "result": "leakage into the surrounding tissue, which leads to serious edema and ectopic mineralization"}]}]}
